Laboratory results: EP0136586A2, “Novel corticoid derivatives and process for production thereof” (priority 1983, dated 1985)

Tested on: thymus gland
Details: rat, in vivo, sc, 11520 min
Experimental: 2) Experiment on thymolytic action
The compounds to be tested are dissolved in a liquid consisting of croton oil : cotton seed oil : ethanol = 1:89:10 and the solution is used for injection.
The rats are anesthesized by inhalation of ether and 20 ml of air are subcutaneously injected into hypodermic organ at the back of the rats using a thin injection needle to form an oval-shaped air cavity. After the rats recovered from anesthesia they are kept on normal food and water. At 8th days after injection, rats are killed by depletion and dissected. The thymus gland is taken out and the wet weight is measured. Thymus weights obtained on the test compounds are divided with those obtained on control, and thymus gland atrophy rate is obtained.
In each of the experiments on anti-inflammatory activity and thymolytic action, clobetasol 17-propionate and betamethasone 17,21-dipropionate are used standard compounds and anti-inflammatory activity ratio and thymolytic activity ratio against clobetasol 17-propionate are calculated using linear regression parallel test method.

In the case of “21-chloro-9a-fluoro-16a-methyl-l,4-pregnadiene-11β,17α-diol-3,6,20-trione 17a-methyl carbonate [Example 8]”, the “Thymolytic activity ratio (B)” value is reported as 0.092.
